Measurements published in US20060079453A1, “Hla binding peptides and their uses” (priority 2002, published 2006).
pIC50: −log10 of the molar value.

Amino acid sequences for entries named in this document (tags omitted). A change or cut given only in a name is not applied to a line headed by its entry. Residues count along the entry.
UniProt Q30154, 30-266: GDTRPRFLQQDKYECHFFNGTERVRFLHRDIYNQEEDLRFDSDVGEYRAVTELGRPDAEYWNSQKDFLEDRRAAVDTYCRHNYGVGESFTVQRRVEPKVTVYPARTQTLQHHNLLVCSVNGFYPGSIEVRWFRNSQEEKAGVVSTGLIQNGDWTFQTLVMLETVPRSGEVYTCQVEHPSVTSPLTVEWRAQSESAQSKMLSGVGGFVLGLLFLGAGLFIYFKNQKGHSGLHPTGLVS
UniProt P79483, 30-266: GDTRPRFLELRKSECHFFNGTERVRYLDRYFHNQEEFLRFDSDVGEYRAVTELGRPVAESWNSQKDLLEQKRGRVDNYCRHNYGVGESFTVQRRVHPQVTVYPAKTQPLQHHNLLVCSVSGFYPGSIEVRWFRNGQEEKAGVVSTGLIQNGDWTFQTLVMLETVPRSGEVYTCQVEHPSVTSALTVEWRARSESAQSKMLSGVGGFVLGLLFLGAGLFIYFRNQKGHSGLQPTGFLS
UniProt P04439: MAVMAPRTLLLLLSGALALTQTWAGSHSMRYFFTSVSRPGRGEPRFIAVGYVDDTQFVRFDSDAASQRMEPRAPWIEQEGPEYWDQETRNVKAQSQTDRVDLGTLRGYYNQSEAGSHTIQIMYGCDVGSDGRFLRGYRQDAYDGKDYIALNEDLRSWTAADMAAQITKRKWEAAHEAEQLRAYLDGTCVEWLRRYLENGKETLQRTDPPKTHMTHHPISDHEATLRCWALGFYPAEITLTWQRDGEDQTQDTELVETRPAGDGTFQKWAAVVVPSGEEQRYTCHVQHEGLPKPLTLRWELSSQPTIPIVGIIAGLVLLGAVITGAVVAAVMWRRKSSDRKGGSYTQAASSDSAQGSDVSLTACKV

How the values were obtained:
Test in all cases: biochemical
Assay type in all cases: binding
HLA-DR DRB5*0101 (DR51) = HLA-DR DRB5*0101 (DR51) (Homo sapiens, UniProt P01903+Q30154); conditions: DRB5 *0101
HLA-DR DRB1*0301 (DR3) = HLA-DR DRB1*0301 (DR3) (Homo sapiens, UniProt P01903+P01911, A100K/A102G/A103R/A169T/F55Y/I96L/K41T/L162R/M171V/P40S/Q125H/Q178H/Q39Y/R42S/S66N/T106N/T262R/W38E/Y61H)
HLA-DR DRB1*1302 (DR13) = HLA-DR DRB1*1302 (DR13) (Homo sapiens, UniProt P01903+P01911, A100E/A169T/K41T/L162R/M171V/P40S/Q125H/Q178H/Q39Y/Q99D/R42S/S66N/T262R/V115G/W38E/Y61H); conditions: DRBI *1302
HLA-DR DRB1*1101 (DR11) = HLA-DR DRB1*1101 (DR11) (Homo sapiens, UniProt P01903+P01911, A100R/A169T/A87E/I96F/K41T/L162R/M171V/P40S/Q125H/Q178H/Q39Y/Q99D/R42S/S66Y/T262R/V115G/W38E); conditions: DRB1 *1101
HLA-DR DRB1*1501 (DR15) = HLA-DR DRB1*1501 (DR15) (Homo sapiens, UniProt P01903+P01911); conditions: DRBI *1501
HLA-DR DRB1*0401 (DR4) = HLA-DR DRB1*0401 (DR4) (Homo sapiens, UniProt P01903+P01911, A100K/A169T/F76Y/I96L/K127E/L162R/M171V/N62H/P40V/Q125Y/R42H/S133A/S149N/S66Y/V115G/V209L/W38E); conditions: DRB1 *0401
HLA-DR DRB4*0101 (DR53) = HLA-DR DRB4*0101 (DR53) (Homo sapiens, UniProt P01903+P13762, G164S); conditions: DRB4 *0101
HLA-DR DRB1*0405 (DR4) = HLA-DR DRB1*0405 (DR4) (Homo sapiens, UniProt P01903+P01911, A100R/A169T/D86S/F76Y/I96L/K127E/L162R/M171V/N62H/P40V/Q125Y/R42H/S133A/S149N/S66Y/V115G/V209L/W38E); conditions: DRB1 *0405
HLA-DR DRB1*0101 (DR1) = HLA-DR DRB1*0101 (DR1) (Homo sapiens, UniProt P01903+P01911, A100R/D57E/F55L/F60I/F76Y/I96L/L162R/M171V/P40L/Q125E/R42F/V115G/Y59C); conditions: DRB1 *0101
HLA-DR DRB3*0101 (DR52) = HLA-DR DRB3*0101 (DR52) (Homo sapiens, UniProt P01903+P79483)
HLA-DR DRB1*0802 (DR8) = HLA-DR DRB1*0802 (DR8) (Homo sapiens, UniProt P01903+P01911, A100R/A103L/A169T/F76Y/H45Y/I96F/K41T/L162R/M171V/P40S/Q125H/Q178H/Q39Y/Q99D/R218S/R42G/S66Y/V115G/W38E)
HLA-A*0206 = HLA-A*0206 (Homo sapiens, UniProt P04439, D140Y/D185E/D98H/E176V/E277Q/F33Y/G131W/G231S/I119V/I121R/I166T/I218V/L300P/L318F/N151K/N90K/P208A/P217A/Q86G/Q94H/R138H/R169H/T345S); conditions: A*0206 binding affinity (expressed as an IC50)
HLA-A*0203 = HLA-A*0203 (Homo sapiens, UniProt P04439, A173T/D140Y/D185E/D98H/E277Q/G131W/G231S/I119V/I121R/I166T/I218V/L180W/L300P/L318F/N151K/N90K/P208A/P217A/Q86G/Q94H/R138H/R169H/T345S); conditions: A*0203 binding affinity (expressed as an IC50)
HLA-A*0201 = HLA-A*0201 (Homo sapiens, UniProt P04439, D140Y/D185E/D98H/E176V/E277Q/G131W/G231S/I119V/I121R/I166T/I218V/L300P/L318F/N151K/N90K/P208A/P217A/Q86G/Q94H/R138H/R169H/T345S); conditions: A*0201 binding affinity (expressed as an IC50)
HLA-DR DRB1*0701 (DR7) = HLA-DR DRB1*0701 (DR7) (Homo sapiens, UniProt P01903+P01911, A100R/A102G/A103Q/D57E/D86V/E43K/F76Y/K127E/L162R/M171V/P40G/Q125H/Q99D/R33Q/R42Y/R54Q/S133A/S66F/T210M/V115G/Y107V/Y59L/Y89S); conditions: DRB1 *0701
HLA-DR DRB1*0901 (DR9) = HLA-DR DRB1*0901 (DR9) (Homo sapiens, UniProt P01903+P01911, A100R/A103E/D57H/D86V/F55Y/F60I/F76Y/I96F/K127E/L162R/M171V/P40D/Q125H/Q99R/R33Q/R42F/S133A/S66N/T210M/V115G/W38K/Y107V/Y59G/Y89S); conditions: DRB1 *0901
HLA-A*0202 = HLA-A*0202 (Homo sapiens, UniProt P04439, D140Y/D185E/D98H/E176V/E277Q/G131W/G231S/I119L/I121R/I166T/I218V/L180W/L300P/L318F/N151K/N90K/P208A/P217A/Q67R/Q86G/Q94H/R138H/R169H/T345S); conditions: A*0202 binding affinity (expressed as an IC50)

`CC[C@H](C)[C@H](N)C(=O)N[C@@H](CS)C(=O)N[C@@H](CC(=O)O)C(=O)N[C@@H](CO)C(=O)N[C@@H](CCCNC(=N)N)C(=O)N[C@H](C(=O)N[C@@H](CC(C)C)C(=O)N[C@@H](CCC(=O)O)C(=O)N[C@@H](CCCNC(=N)N)C(=O)N[C@@H](Cc1ccc(O)cc1)C(=O)N[C@@H](CC(C)C)C(=O)N[C@@H](CC(C)C)C(=O)N[C@@H](CCC(=O)O)C(=O)N[C@@H](C)C(=O)N[C@@H](CCCCN)C(=O)O)C(C)C` gave a pIC50 (HLA-DR DRB5*0101 (DR51)) of 5.14, a pIC50 (HLA-DR DRB1*0301 (DR3)) of 6.63 and a pIC50 (HLA-DR DRB1*1302 (DR13)) of 4.69. The pIC50 (HLA-DR DRB1*1101 (DR11)) was 5.53, the pIC50 (HLA-DR DRB1*1501 (DR15)) was 7.07 and the pIC50 (HLA-DR DRB1*0401 (DR4)) was 5.70. For the same compound, the pIC50 (HLA-DR DRB4*0101 (DR53)) was 5.07, the pIC50 (HLA-DR DRB1*0405 (DR4)) was 4.96 and the pIC50 (HLA-DR DRB1*0101 (DR1)) was 5.56. The pIC50 (HLA-DR DRB3*0101 (DR52)) was 4.79 and the pIC50 (HLA-DR DRB1*0802 (DR8)) was 6.09.
`CC(C)C[C@H](NC(=O)[C@H](CO)NC(=O)[C@H](CC(C)C)NC(=O)[C@@H](N)CO)C(=O)NCC(=O)N[C@@H](Cc1ccccc1)C(=O)N[C@@H](CC(C)C)C(=O)N[C@@H](Cc1ccccc1)C(=O)N[C@H](C(=O)O)C(C)C` was tested, and the pIC50 (HLA-A*0206) was 7.03, the pIC50 (HLA-A*0203) was 7.68 and the pIC50 (HLA-A*0201) was 7.11.
In the case of `CC(C)C[C@H](NC(=O)[C@H](C)N)C(=O)N[C@@H](Cc1ccccc1)C(=O)N1CCC[C@H]1C(=O)N1CCC[C@H]1C(=O)N[C@@H](CCC(=O)O)C(=O)NCC(=O)N[C@H](C(=O)N[C@@H](CO)C(=O)N[C@H](C(=O)O)C(C)C)C(C)C`, the pIC50 (HLA-A*0201) was 7.82.
`CC[C@H](C)[C@H](NC(=O)[C@H](CC(=O)O)NC(=O)[C@H](Cc1ccccc1)NC(=O)[C@H](CC(N)=O)NC(=O)[C@H](CCCNC(=N)N)NC(=O)[C@H](CCCNC(=N)N)NC(=O)[C@H](CC(=O)O)NC(=O)[C@H](CCCCN)NC(=O)[C@H](CC(C)C)NC(=O)[C@H](CS)NC(=O)[C@H](Cc1ccc(O)cc1)NC(=O)[C@H](CCC(=O)O)NC(=O)[C@H](CC(C)C)NC(=O)[C@H](CCCNC(=N)N)NC(=O)CN)C(=O)O` showed a pIC50 (HLA-DR DRB1*0301 (DR3)) of 6.07, a pIC50 (HLA-DR DRB1*1302 (DR13)) of 5.91 and a pIC50 (HLA-DR DRB1*1501 (DR15)) of 6.03. For the same compound, the pIC50 (HLA-DR DRB1*0401 (DR4)) was 6.04, the pIC50 (HLA-DR DRB4*0101 (DR53)) was 4.80 and the pIC50 (HLA-DR DRB1*0101 (DR1)) was 5.01. It also gave a pIC50 (HLA-DR DRB3*0101 (DR52)) of 5.28, a pIC50 (HLA-DR DRB1*0802 (DR8)) of 5.88 and a pIC50 (HLA-DR DRB1*0701 (DR7)) of 4.92. The pIC50 (HLA-DR DRB1*0901 (DR9)) was 4.60.
`CC[C@H](C)[C@H](NC(=O)[C@H](CS)NC(=O)[C@H](CC(C)C)NC(=O)[C@@H]1CCCN1C(=O)[C@@H](NC(=O)[C@H](CC(C)C)NC(=O)[C@@H](N)CCCCN)[C@@H](C)O)C(=O)N[C@H](C(=O)N[C@@H](CC(C)C)C(=O)O)[C@@H](C)O` was tested, and the pIC50 (HLA-A*0202) was 9.57.
Work on `CC[C@H](C)[C@H](N)C(=O)N[C@@H](CC(C)C)C(=O)N[C@@H](Cc1ccc(O)cc1)C(=O)N[C@@H](CO)C(=O)N[C@@H](C)C(=O)N[C@@H](Cc1c[nH]cn1)C(=O)N[C@@H](CC(=O)O)C(=O)N[C@H](C(=O)N[C@H](C(=O)N[C@H](C(=O)O)C(C)C)[C@@H](C)O)[C@@H](C)O` yielded a pIC50 (HLA-A*0206) of 5.83.
Compound `CC(C)C[C@H](NC(=O)[C@H](CO)NC(=O)[C@H](CC(C)C)NC(=O)[C@@H](N)CO)C(=O)NCC(=O)N[C@@H](Cc1ccccc1)C(=O)N[C@@H](CC(C)C)C(=O)N[C@@H](Cc1ccccc1)C(=O)N[C@@H](CC(C)C)C(=O)N[C@H](C(=O)O)C(C)C` has a pIC50 (HLA-A*0202) of 8.41, a pIC50 (HLA-A*0206) of 7.38 and a pIC50 (HLA-A*0203) of 7.77.
